# Apparent affinities of Ab-14 variants for a coronavirus HR2 peptide

The measurements come from Engelhart et al. 2022 (doi:10.1038/s41597-022-01779-4) through the FLAb antibody collection.

The target is the same throughout: PDVDLGDISGINAS, from the HR2 region of SARS-CoV-2 spike.

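The starting antibody came from a phage panning campaign against this peptide. The library (AAYL49) carries one to three amino acid substitutions per variant, with no insertions or deletions. The scFvs were displayed on barcoded MATa yeast, the peptide on MATalpha yeast. Binding brings cells together so that they mate, and sequencing counts the barcode pairs among the diploids. Read counts were normalised to the haploid input and turned into Kd by a linear fit to BCL2-family pairs of known affinity, for each replicate. The assay was run in three technical replicates.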

Ab-14 is the parent antibody, in scFv form: VH, then a 15-residue (Gly4Ser)3 linker, then VL. The light chain is unchanged in all variants.
VH: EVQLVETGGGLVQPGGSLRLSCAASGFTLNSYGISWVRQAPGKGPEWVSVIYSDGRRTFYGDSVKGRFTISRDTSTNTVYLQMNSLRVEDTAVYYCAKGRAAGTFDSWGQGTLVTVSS
VL: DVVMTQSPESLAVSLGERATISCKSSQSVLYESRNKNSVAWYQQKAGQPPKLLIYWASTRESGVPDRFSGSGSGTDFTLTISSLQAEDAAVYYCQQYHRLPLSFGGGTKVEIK

Positions count from residue 1 of the parent VH; F27L puts L in place of F. The read-out is the apparent dissociation constant on a log10 scale (nM): the lower, the stronger. A mean of the replicates is given; it leaves out those without a signal. Where no diploid with the target was found in any replicate, the entry reads "not detected": below detection, most likely a poor binder, though not proof of it. For reference, the parent read 0.65 as the reference entry and 4.11 (one replicate of three) as a member of this library. Nonspecific signal, from three strains lacking the peptide, appeared in 15% of pairings of library AAYL49, centred on 4.06 (5% of these signals below 2.83); values are not corrected for it.

changes,mean log10 Kd (nM),replicates with signal
F27L+L29Q+R56V,not detected,0 of 3
G33D+F59W+R100M,3.22,1 of 3
R56L+D62N+S107F,1.92,3 of 3
S53D+V64C,not detected,0 of 3
G33P+D54M+A102R,not detected,0 of 3
T28L+G61Y+G99T,4.25,1 of 3
S31R+R56F+F105A,3.56,1 of 3
S53G+F105V,not detected,0 of 3
T28C+L29K+S31I,not detected,0 of 3
S35W+R57S+F105L,not detected,0 of 3
S31D+S53V+T58R,1.76,3 of 3
F59E+G99F,5.01,3 of 3
S31G+S35V+Y52H,not detected,0 of 3
G33D+S53G+D62P,4.33,1 of 3
L29S+R56N+G61A,not detected,0 of 3
T28S+G55P+K65Y,not detected,0 of 3
I51L+R56K+F105W,1.14,3 of 3
Y32N+V50E+F105E,not detected,0 of 3
S53T+D54G+D106L,4.29,2 of 3
A102S+F105G,not detected,0 of 3
Y52K+G55E+G103K,5.37,1 of 3
Y32L+S35E+V64D,3.47,2 of 3
I51F+G61S,2.70,2 of 3
T28V+I51N+Y52H,4.93,1 of 3
V50C+D62S+D106M,3.54,1 of 3
S35K+V50H+G61D,not detected,0 of 3
I34Y+F59Y+R100K,not detected,0 of 3
S31G+V50C+A102W,not detected,0 of 3
A102L+D106I+S107F,3.49,3 of 3
T28R+S31N+D54H,not detected,0 of 3
G33A+R57F+Y60T,not detected,0 of 3
G26E+G99W+D106C,1.52,3 of 3
L29W+I34L+S63N,3.83,1 of 3
F27E+R56E+F105W,2.66,3 of 3
I51N+G61P+V64Y,not detected,0 of 3
T28E+V50M+G55C,not detected,0 of 3
T28A+S35Q,2.09,1 of 3
T28D+Y52S+G61E,3.09,3 of 3
G33H+T58W+D62E,not detected,0 of 3
V50C+R100I+T104G,not detected,0 of 3
G55A+R100P,4.35,1 of 3
D54K+T104F+F105T,not detected,0 of 3
L29C+F59D+A102K,not detected,0 of 3
I51D+A101D+S107P,4.14,1 of 3
T28G+L29G+T104L,3.31,1 of 3
Y32T+K65E,5.28,1 of 3
S35T+V50A+F105K,not detected,0 of 3
G26M+I34N+F105Y,3.98,3 of 3
S31P+Y60C+V64T,not detected,0 of 3
Y32C+I34V+A102E,3.85,2 of 3
I34F+T104E+S107F,not detected,0 of 3
G33P+D54A+R57C,3.81,3 of 3
G26V+F27R+D54I,not detected,0 of 3
G26E+S63R,1.19,3 of 3
T28N+K65C+D106Y,5.04,3 of 3
T28H+N30Y+G33D,not detected,0 of 3
L29H+I34S+S63T,5.54,2 of 3
S31T+Y52S+G55R,5.29,1 of 3
G26F+D62C+S63H,3.68,1 of 3
S53N+V64R+F105Q,not detected,0 of 3
L29C+N30W+R57A,5.59,1 of 3
R56P+T58C+R100D,5.29,2 of 3
G26T+S31G+R100Y,not detected,0 of 3
G33E+D54H+S63N,not detected,0 of 3
G33W+R57Y+G103M,not detected,0 of 3
F59V+G99Y+D106F,4.81,1 of 3
Y32H+R56D+G61L,3.54,3 of 3

The closing 8 entries, repeated:

changes	mean log10 Kd (nM)	replicates with signal
S53N+V64R+F105Q	not detected	0 of 3
L29C+N30W+R57A	5.59	1 of 3
R56P+T58C+R100D	5.29	2 of 3
G26T+S31G+R100Y	not detected	0 of 3
G33E+D54H+S63N	not detected	0 of 3
G33W+R57Y+G103M	not detected	0 of 3
F59V+G99Y+D106F	4.81	1 of 3
Y32H+R56D+G61L	3.54	3 of 3